Data taken from EP4825370A1, “COSMETIC, COSMECEUTICAL AND/OR PHARMACEUTICAL COMPOSITION, USES AND METHODS” (dated 2026).

Key:
IL-1alpha = assay: In vitro evaluation of inhibition of IL-1 alpha production (ELISA, cell lysate); settings: 120 ppm, human keratinocytes, 6 hours, relative to the PMA/LPS-stimulated group
Protocol: (§1) Human keratinocytes were seeded in 75 cm^2 flasks cultured and expanded in a humidified incubator at 37°C in the presence of 5% CO2, using specific culture medium. Upon reaching 70-80% confluence, the cells were trypsinized and seeded in 6-well plates for subsequent incubation with the test product and evaluation of the proposed parameter. The cells were incubated with 2 non-cytotoxic concentrations for the peptide (120 ppm and 60 ppm). Next, the cells were incubated under the same culture conditions cited above for 6 hours for subsequent collection of the cell lysate. Next, quantification of the pro-inflammatory mediator IL-1alpha was performed by the ELISA technique.

IL-6 = assay: In vitro evaluation of inhibition of IL-6 production (ELISA, cell supernatant); settings: 60 ppm, human keratinocytes, 48 hours, relative to the PMA/LPS-stimulated group
Protocol: as §1, with “for 48” for “for 6”, “cell supernatant.” for “cell lysate.”, “mediator IL-6” for “mediator IL-1alpha”

lysozyme release = settings: prior art WO2008014414; cited from earlier work
EPO release = settings: prior art WO2008014414; cited from earlier work

CC(C)[C@H](NC(=O)[C@H](C)NC(=O)[C@H](C)NC(=O)CCC(=O)O)C(=O)N[C@@H](C)C(=O)O
reduces IL-1α levels (IL-1alpha): 31% | reduces IL-6 levels (IL-6): 33%

Ac-RPGEAAVA
inhibition in lysozyme release (lysozyme release): did not show any inhibition

MA-RPGEAAVA
inhibition of EPO release (EPO release): did not show any inhibition

MA-SKTAAKGEAAAERPGEAAVA
inhibition of EPO release (EPO release): did not show any inhibition
